The data set can be described thus: Solubility in toluene (four-stage evaluation). It counts as physicochemical.

Consider “zinc 3-methyl-5-(α, α-dimethylbenzyl)salicylate [(2) Zinc, reference compound]”, for which the “Solubility in Toluene” value is listed as “Δ (solubility =not less than 5% to less than 20%)”.

The values above are taken from US5049685A, “Nuclear substituted salicylic acids and their salts” (Sanko Kaihatsu Kagaku Kenkyusho, priority 1988, dated 1991).
